Assay results as given in PubChem BioAssay AID488896 (Broad Institute, 2010).
The entries are a selection whose mix differs from that of the whole data set. Activity calls are given as the source filed them.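 Rule for the calls: active = mean replicate inhibition of at least 70% and a set share of replicates each scoring 70 or more; inconclusive = meets just one of the two criteria; inactive = fails both criteria.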

The chains behind the UniProt entries cited, without tags or fusion partners.
UniProt Q61009, whole entry: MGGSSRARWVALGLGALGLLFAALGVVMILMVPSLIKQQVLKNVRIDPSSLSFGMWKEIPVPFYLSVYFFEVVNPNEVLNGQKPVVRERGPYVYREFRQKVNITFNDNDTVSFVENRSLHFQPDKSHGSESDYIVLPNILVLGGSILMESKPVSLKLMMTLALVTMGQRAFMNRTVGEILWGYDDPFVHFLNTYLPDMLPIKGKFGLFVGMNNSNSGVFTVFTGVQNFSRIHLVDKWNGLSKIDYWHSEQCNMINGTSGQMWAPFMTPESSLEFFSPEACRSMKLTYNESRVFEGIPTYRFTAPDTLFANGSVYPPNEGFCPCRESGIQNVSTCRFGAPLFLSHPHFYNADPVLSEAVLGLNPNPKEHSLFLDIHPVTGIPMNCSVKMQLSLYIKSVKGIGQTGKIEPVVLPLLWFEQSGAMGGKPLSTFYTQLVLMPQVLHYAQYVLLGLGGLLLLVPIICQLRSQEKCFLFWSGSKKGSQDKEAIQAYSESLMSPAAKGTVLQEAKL

biological target: Scavenger receptor class B member 1 (Mus musculus) (UniProt Q61009); experiment: mouse SR-BI DiI-HDL uptake blockers – ldlA[mSR-BI] cells, fluorescence, single point, primary screen (AID 488896); settings: ldlA[mSR-BI] CHO cells, 3 h, at 12.5 µM, hits give high values;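 note: 0% = median of neutral control wells and 100% = median of positive control wells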

Row | Compound | inhibition
1 | CCC(=O)N(c1ccccc1)C1(COC)CCN(CCc2cccs2)CC1 | inactive: -9.44%
2 | CCC(=O)N(c1ccccc1)C1(COC)CCN(CCn2nnn(CC)c2=O)CC1 | inactive: -15.2%
